We go through 26 molecules from PubChem BioAssay AID588352 (The Scripps Research Institute Molecular Screening Center, 2011).

Sequences of proteins named here, by UniProt entry; tags and fusion partners are left off.
UniProt Q9Y6Q9, whole entry: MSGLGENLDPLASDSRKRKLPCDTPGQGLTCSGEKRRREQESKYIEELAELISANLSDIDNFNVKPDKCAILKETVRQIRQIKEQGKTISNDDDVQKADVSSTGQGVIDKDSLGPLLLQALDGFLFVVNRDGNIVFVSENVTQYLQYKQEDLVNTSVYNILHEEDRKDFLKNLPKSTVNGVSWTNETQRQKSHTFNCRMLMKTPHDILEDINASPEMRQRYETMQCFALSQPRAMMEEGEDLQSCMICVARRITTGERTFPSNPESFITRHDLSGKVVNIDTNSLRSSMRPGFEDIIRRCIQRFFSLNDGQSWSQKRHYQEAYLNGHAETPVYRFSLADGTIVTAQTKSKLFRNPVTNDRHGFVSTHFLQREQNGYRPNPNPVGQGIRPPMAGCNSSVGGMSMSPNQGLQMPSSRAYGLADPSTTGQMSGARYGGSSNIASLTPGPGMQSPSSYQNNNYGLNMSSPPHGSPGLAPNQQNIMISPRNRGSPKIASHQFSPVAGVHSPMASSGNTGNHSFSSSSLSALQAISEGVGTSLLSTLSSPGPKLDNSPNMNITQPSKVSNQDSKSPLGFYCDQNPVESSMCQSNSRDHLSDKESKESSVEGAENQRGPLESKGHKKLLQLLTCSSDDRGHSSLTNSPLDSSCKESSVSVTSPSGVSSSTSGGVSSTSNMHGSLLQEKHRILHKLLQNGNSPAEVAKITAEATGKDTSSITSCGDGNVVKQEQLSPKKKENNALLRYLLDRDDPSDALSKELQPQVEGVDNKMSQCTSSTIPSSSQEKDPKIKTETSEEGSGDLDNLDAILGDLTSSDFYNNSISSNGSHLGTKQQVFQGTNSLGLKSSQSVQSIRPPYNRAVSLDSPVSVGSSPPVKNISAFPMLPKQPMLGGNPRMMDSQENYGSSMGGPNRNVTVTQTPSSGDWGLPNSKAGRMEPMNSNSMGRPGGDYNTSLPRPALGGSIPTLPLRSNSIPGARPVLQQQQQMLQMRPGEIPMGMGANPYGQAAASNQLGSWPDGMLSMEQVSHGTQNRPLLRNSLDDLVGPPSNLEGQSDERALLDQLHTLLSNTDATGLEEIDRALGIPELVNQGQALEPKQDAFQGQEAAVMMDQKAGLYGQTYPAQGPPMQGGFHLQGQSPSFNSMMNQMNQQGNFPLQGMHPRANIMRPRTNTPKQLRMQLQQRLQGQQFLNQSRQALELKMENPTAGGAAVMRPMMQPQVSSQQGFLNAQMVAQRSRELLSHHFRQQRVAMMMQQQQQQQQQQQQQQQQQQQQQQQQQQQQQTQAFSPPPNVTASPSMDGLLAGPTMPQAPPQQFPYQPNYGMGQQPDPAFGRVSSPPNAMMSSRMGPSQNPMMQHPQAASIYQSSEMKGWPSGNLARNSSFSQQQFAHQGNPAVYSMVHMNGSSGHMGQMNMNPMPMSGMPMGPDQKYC

The entries are a selection whose mix differs from that of the whole data set. Activity calls are given as the source filed them.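 How the source made its calls: active means inhibition above a per-campaign cutoff, the mean of all compounds plus 3 SD (cut at about 60% in these data); inactive means the rest.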

The assay concerns the target Nuclear receptor coactivator 3 (Homo sapiens) (UniProt Q9Y6Q9). The assay can be described thus: SRC3 coactivator transcriptional activity inhibitors, primary screen, cell-based, luminescence (AID 588352).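 Further: 0% = DMSO-treated cells and 100% = gossypol-treated cells at 36 µM; higher means less SRC3-driven luciferase light from the GAL4 reporter.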 The following applies: HEK293 GAL4-SRC3 luciferase reporter, at 3.6 µM, active compounds read high. (In general: A reporter such as luciferase makes a cellular process visible.)
A word on the inhibition: it is the change of the read-out against control, counted positive when it falls. `O=C(NCC1(N2CCCCC2)CCCCC1)c1ccc(OC(F)F)cc1`: the inhibition is inactive: 2.62%.

As for `CC(C)(C)n1nnnc1C(c1ccccc1OC(F)(F)F)N1CCC(n2c(=O)[nH]c3ccccc32)CC1` (stereo unspecified), the inhibition was inactive: 17.4%. The result for `N#CC1(Nc2ccccc2)CCN(CCc2ccccc2)CC1` reads inactive: 0.09%; that for `O=c1[nH]c2ccccc2n1C1CCN(C(c2ccccc2OC(F)(F)F)c2nnnn2C2CCCC2)CC1` (stereo unspecified), inactive: -3.64%.

Turning to `CCN1CCC(Nc2ccc(Cl)cc2)CC1`, the inhibition is inactive: 7.28%. The result for `O=C(NCC1(N2CCCCC2)CCCCC1)c1cccc([N+](=O)[O-])c1` reads inactive: -17.2%.

Turning to `CSc1ccc(C(=O)NCC2(N3CCOCC3)CCCCC2)cc1`, the inhibition was inactive: -0.2%. The same measure for `O=C(NCC1(N2CCCCC2)CCCCC1)c1cccc(C(F)(F)F)c1`: inactive: 12.6%; for `COc1cc(C(=O)NCC2(N3CCCCC3)CCCCC2)ccc1OC(F)F`: inactive: 11.7%; for `O=C(NCC1(N2CCOCC2)CCCCC1)c1cc(=O)[nH]c2ccccc12`: inactive: 12.6%. For the molecule `CCCCn1nnnc1C(c1cccc2ccccc12)N1CCC(n2c(=O)[nH]c3ccccc32)CC1` (stereo unspecified), the inhibition was inactive: 10.4%. The same measure for `CN1CCN(CCOC(=O)C(O)(c2ccccc2)c2ccccc2)CC1`: inactive: 20.7%. Take `COc1ccc(NC2CCN(C(=O)OC(C)(C)C)CC2)cc1`: the inhibition was inactive: -1.13%.

Take `CC(C)c1ccc(C(=O)NCC2(N3CCOCC3)CCCCC2)cc1`: the inhibition was inactive: -17.1%. The same measure for `CCCCn1nnnc1C(c1ccccc1OC(F)(F)F)N1CCC(n2c(=O)[nH]c3ccccc32)CC1` (stereo unspecified): inactive: 20.7%; for `CC(C)c1ccc(NC2CCN(C(=O)OC(C)(C)C)CC2)cc1`: inactive: -61.5%. The result for `CN(C)c1cccc(C(=O)NCC2(N3CCCCC3)CCCCC2)c1` reads inactive: -9.34%; that for `COc1ccc(CN(CCCl)CCCl)cc1Cl`, inactive: 4.06%.

For `CCC(c1nnnn1C(C)(C)C)N1CCC(n2c(=O)[nH]c3ccccc32)CC1` (stereo unspecified), the inhibition is inactive: -10%. With `O=C(NCC1(N2CCOCC2)CCCCC1)c1cc(F)c(F)cc1Cl`, the inhibition was inactive: 9.79%.

For `COc1cc(OC)c(C(=O)NCC2(N(C)C)CCCCC2)cc1OC`, the inhibition was inactive: 3.39%. The same measure for `CCCCn1nnnc1C(c1ccnc2ccccc12)N1CCC(n2c(=O)[nH]c3ccccc32)CC1` (stereo unspecified): inactive: 0.26%.

Regarding `O=C(NCC1(N2CCCCC2)CCCCC1)c1cncc(Br)c1`, the inhibition is inactive: 0.1%. The same measure for `CN1CCC(Nc2cccc(F)c2)CC1`: inactive: -4.88%; for `COc1ccc(C(c2nnnn2C2CCCC2)N2CCC(n3c(=O)[nH]c4ccccc43)CC2)cc1` (stereo unspecified): inactive: -0.3%; for `CCCOc1ccc(C(=O)NCC2(N(C)C)CCCCC2)cc1OC`: inactive: 6.53%.
